Data taken from patent US20260384438A1, “PYRROLOPYRIMIDINE CARBOXAMIDES” (published 2026).

Protein sequences, listed by entry. Tags and fused reporters are not part of them. Residues count along the entry.
UniProt O75116, whole entry: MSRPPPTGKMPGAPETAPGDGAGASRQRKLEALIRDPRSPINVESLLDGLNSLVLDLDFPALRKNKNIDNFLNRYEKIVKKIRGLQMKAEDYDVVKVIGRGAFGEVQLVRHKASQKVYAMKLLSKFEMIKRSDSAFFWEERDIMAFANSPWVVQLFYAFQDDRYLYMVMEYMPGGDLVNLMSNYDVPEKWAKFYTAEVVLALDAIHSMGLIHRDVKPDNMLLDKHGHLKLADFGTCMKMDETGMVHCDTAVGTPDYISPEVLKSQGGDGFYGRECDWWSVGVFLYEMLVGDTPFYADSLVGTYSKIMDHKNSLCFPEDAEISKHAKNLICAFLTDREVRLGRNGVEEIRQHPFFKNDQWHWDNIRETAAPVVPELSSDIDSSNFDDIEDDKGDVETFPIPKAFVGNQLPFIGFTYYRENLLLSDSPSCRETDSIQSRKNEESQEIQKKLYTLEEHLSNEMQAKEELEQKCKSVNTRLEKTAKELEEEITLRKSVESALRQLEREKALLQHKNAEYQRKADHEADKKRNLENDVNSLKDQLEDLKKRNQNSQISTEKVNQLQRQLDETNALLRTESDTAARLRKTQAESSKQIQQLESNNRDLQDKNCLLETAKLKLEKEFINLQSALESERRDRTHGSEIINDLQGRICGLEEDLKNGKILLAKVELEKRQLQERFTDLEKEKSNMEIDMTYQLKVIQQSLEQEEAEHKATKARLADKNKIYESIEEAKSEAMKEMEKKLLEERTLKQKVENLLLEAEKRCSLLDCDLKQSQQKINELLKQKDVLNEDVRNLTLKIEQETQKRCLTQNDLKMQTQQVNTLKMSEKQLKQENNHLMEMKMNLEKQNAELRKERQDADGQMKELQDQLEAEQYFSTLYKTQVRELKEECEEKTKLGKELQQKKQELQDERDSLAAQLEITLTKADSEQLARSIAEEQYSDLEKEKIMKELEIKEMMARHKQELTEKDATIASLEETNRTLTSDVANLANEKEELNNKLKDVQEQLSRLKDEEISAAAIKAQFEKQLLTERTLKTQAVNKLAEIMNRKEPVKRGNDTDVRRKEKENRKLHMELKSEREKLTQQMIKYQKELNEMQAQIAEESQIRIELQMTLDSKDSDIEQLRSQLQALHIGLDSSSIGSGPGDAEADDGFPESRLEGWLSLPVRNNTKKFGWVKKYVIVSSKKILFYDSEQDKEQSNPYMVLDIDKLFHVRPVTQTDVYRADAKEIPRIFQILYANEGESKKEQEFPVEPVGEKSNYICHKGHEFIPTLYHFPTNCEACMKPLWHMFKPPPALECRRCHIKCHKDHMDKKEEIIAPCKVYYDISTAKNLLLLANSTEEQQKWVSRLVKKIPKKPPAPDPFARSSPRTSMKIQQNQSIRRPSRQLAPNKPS
UniProt P24723, whole entry: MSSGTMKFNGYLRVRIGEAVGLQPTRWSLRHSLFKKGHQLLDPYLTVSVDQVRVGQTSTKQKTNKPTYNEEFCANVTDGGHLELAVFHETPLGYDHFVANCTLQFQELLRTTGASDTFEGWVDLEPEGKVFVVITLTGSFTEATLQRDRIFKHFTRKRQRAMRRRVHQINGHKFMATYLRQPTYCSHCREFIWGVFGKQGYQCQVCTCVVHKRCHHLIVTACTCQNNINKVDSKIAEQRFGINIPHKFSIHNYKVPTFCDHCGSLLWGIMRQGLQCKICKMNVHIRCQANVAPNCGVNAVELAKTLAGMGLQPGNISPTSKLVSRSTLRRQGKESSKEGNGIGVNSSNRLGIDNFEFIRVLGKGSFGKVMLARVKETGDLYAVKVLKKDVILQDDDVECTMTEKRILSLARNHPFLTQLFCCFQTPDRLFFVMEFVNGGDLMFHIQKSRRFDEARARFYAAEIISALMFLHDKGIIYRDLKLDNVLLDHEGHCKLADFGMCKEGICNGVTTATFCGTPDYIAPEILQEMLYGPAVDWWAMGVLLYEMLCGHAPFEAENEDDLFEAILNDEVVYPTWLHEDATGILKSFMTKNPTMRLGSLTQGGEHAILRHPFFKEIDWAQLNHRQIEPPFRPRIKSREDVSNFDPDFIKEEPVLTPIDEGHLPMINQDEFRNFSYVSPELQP
UniProt P53779, whole entry: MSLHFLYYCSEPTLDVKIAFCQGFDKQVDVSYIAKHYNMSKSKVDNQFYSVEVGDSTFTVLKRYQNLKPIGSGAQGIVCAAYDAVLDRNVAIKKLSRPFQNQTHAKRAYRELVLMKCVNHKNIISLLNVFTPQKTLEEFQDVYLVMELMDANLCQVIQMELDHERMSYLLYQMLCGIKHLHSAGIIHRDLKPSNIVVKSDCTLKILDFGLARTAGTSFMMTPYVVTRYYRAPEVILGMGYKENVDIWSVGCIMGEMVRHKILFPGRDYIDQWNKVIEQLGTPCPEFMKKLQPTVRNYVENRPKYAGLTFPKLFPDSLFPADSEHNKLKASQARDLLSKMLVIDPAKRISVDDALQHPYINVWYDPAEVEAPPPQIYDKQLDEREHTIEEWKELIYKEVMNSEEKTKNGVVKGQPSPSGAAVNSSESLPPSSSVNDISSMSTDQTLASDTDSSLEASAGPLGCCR
UniProt P08069, 960-1367 limits assumed: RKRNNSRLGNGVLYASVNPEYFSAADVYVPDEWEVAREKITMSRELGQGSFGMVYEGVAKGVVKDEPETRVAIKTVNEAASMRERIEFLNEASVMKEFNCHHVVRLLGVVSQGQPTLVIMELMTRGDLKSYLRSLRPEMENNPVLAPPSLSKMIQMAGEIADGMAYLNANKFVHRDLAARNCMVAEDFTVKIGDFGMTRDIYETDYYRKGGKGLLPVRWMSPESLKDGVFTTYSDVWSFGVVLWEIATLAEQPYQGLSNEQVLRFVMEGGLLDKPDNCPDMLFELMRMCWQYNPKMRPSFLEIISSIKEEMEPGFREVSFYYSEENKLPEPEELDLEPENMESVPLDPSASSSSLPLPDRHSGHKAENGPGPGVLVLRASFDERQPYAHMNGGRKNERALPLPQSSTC
UniProt Q9Y4K4, whole entry: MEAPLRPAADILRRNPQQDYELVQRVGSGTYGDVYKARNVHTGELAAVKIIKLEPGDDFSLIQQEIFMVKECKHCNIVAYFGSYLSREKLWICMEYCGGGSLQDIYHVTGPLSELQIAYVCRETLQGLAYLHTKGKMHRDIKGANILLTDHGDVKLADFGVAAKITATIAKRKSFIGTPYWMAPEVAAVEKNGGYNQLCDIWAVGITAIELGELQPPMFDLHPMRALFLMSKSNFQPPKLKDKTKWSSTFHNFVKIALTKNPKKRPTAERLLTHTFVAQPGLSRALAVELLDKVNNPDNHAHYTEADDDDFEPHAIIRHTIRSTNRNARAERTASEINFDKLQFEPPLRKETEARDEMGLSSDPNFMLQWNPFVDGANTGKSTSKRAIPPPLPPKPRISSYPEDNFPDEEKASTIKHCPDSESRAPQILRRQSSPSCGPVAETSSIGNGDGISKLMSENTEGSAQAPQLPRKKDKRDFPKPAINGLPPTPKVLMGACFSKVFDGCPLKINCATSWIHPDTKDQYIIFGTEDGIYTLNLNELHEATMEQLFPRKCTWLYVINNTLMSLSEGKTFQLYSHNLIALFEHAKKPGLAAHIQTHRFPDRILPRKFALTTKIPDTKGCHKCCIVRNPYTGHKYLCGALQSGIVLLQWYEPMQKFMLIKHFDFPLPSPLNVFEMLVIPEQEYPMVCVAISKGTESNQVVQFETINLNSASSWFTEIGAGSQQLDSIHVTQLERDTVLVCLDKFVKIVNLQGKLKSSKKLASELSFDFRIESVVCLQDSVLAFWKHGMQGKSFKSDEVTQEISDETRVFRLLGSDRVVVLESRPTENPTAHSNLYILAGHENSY
UniProt P37173, 23-567 limits assumed: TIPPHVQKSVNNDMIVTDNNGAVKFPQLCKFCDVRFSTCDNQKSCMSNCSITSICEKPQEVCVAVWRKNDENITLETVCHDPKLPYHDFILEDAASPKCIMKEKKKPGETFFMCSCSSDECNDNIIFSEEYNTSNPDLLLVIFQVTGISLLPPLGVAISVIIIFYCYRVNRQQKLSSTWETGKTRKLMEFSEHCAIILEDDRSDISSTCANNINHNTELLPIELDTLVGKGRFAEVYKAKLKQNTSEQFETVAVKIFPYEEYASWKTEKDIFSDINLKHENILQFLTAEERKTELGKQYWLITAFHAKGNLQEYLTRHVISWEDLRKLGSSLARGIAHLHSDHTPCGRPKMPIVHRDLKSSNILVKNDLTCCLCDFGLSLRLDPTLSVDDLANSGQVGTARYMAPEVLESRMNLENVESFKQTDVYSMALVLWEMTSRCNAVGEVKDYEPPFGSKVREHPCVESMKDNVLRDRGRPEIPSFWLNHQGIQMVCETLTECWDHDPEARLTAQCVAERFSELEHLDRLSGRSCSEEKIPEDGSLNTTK
UniProt Q7KZI7, whole entry: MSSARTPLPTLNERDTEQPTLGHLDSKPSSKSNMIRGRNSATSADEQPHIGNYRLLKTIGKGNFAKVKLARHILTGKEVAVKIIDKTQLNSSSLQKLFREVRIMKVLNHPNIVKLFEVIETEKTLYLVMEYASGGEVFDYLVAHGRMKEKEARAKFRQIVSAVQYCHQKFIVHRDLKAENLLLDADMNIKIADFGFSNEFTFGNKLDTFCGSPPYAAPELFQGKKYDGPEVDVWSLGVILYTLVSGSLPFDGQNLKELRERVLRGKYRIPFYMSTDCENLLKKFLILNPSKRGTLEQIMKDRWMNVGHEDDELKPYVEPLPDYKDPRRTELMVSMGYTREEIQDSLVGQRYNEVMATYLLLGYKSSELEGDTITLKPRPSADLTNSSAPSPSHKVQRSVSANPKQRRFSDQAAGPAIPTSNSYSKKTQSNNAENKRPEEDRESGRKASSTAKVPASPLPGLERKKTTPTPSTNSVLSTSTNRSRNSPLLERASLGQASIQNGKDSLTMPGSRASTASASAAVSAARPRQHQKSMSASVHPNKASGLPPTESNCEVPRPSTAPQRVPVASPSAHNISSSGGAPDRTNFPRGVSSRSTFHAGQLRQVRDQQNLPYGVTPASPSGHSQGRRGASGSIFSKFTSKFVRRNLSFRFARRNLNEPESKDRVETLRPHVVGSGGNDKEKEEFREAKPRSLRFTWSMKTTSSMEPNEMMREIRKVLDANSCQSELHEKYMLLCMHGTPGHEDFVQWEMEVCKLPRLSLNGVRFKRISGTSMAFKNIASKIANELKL
UniProt O00142, 34-265 limits assumed: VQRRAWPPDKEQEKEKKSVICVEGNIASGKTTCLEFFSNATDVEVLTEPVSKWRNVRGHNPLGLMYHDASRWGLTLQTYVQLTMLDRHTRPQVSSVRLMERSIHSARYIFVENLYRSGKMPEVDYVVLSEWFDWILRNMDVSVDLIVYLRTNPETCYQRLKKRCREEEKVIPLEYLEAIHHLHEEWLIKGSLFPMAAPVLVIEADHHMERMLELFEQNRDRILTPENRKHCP
UniProt Q9HAZ1, whole entry: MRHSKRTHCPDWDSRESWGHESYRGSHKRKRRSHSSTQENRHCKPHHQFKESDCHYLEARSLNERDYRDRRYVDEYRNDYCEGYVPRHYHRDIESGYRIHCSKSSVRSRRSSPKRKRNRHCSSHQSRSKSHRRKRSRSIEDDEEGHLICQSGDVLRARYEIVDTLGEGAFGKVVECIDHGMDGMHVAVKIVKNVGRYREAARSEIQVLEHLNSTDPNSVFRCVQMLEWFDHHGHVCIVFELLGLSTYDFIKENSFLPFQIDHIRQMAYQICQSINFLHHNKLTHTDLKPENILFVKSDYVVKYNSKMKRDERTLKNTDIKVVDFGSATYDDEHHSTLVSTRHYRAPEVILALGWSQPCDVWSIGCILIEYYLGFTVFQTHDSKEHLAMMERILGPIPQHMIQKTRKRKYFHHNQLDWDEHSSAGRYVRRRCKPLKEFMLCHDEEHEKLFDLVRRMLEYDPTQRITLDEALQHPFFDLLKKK
UniProt Q14164, whole entry: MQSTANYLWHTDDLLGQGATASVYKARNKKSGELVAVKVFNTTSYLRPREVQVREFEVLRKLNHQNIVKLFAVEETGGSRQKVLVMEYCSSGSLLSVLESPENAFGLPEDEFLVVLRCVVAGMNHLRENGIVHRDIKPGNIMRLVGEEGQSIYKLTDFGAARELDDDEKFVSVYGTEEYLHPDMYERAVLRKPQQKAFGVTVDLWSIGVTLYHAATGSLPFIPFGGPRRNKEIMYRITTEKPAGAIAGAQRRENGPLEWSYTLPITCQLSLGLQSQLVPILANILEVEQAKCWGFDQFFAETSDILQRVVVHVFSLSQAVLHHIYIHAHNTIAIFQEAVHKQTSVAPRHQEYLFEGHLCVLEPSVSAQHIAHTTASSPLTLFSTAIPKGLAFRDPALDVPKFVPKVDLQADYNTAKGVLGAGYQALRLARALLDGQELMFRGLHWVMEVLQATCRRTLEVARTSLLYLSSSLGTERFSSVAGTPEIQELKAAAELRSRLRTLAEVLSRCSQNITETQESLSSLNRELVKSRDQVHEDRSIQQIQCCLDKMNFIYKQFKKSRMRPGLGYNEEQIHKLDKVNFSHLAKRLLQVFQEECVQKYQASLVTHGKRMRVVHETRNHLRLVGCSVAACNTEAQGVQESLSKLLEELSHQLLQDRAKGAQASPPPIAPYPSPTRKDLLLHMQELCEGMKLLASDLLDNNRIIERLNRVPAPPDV

Key:
Assay in all cases: KAT chemical proteomics
AKT2 = AKT2 (Homo sapiens, UniProt P31751)
TESK1 = TESK1 (Homo sapiens, UniProt Q15569)
CKMT1A = CKMT1A (Homo sapiens, UniProt P12532)
PDIK1L = PDIK1L (Homo sapiens, UniProt Q8N165)
IRAK3 = IRAK3 (Homo sapiens, UniProt Q9Y616)
CLK2 = CLK2 (Homo sapiens, UniProt P49760)
ROCK2 = ROCK2 (Homo sapiens, UniProt O75116)
PRKCH = PRKCH (Homo sapiens, UniProt P24723)
ABL1 = ABL1 (Homo sapiens, UniProt P00519)
ATR = ATR (Homo sapiens, UniProt Q13535)
MAPK10 = MAPK10 (Homo sapiens, UniProt P53779)
MAPK9 = MAPK9 (Homo sapiens, UniProt P45984)
MKNK2 = MKNK2 (Homo sapiens, UniProt Q9HBH9)
LATS2 = LATS2 (Homo sapiens, UniProt Q9NRM7)
MAST3 = MAST3 (Homo sapiens, UniProt O60307)
IGF1R = IGF1R (Homo sapiens, UniProt P08069)
MAP2K2 = MAP2K2 (Homo sapiens, UniProt P36507)
MAP4K5 = MAP4K5 (Homo sapiens, UniProt Q9Y4K4)
PRKAG3 = test system: PRKAG3
WEE1 = WEE1 (Homo sapiens, UniProt P30291)
TGFBR2 = TGFBR2 (Homo sapiens, UniProt P37173)
ARAF = ARAF (Homo sapiens, UniProt P10398)
CSNK1D = CSNK1D (Homo sapiens, UniProt P48730)
MARK2 = MARK2 (Homo sapiens, UniProt Q7KZI7)
BRSK2 = BRSK2 (Homo sapiens, UniProt Q8IWQ3)
MST1R = MST1R (Homo sapiens, UniProt Q04912)
MAP2K3 = MAP2K3 (Homo sapiens, UniProt P46734)
TAOK3 = TAOK3 (Homo sapiens, UniProt Q9H2K8)
PHKA2 = test system: PHKA2
CAMK2G = CAMK2G (Homo sapiens, UniProt Q13555)
PRKG1 = PRKG1 (Homo sapiens, UniProt Q13976)
BMPR1B = BMPR1B (Homo sapiens, UniProt O00238)
TK2 = TK2 (Homo sapiens, UniProt O00142)
GAK = GAK (Homo sapiens, UniProt O14976)
MAP4K1 = MAP4K1 (Homo sapiens, UniProt Q92918)
SRC = SRC (Homo sapiens, UniProt P12931)
FGFR4 = FGFR4 (Homo sapiens, UniProt P22455)
CLK4 = CLK4 (Homo sapiens, UniProt Q9HAZ1)
IKBKE = IKBKE (Homo sapiens, UniProt Q14164)
PRKDC = PRKDC (Homo sapiens, UniProt P78527)

Molecule `Cc1nc(C(F)(F)F)c2c(C(N)=O)c(N)n(-c3c(C)ccc(O)c3C)c2n1` (single isomer, unassigned) has an RB50 (AKT2) of over 50 µM, an RB50 (TESK1) of over 50 µM and an RB50 (CKMT1A) of over 50 µM. It also gave an RB50 (PDIK1L) of over 50 µM, an RB50 (IRAK3) of over 50 µM and an RB50 (CLK2) of 417 nM. It also gave an RB50 (ROCK2) of over 50 µM, an RB50 (PRKCH) of over 50 µM and an RB50 (ABL1) of 389 nM. For the same molecule, the RB50 (ATR) was over 50 µM, the RB50 (MAPK10) was over 50 µM and the RB50 (MAPK9) was over 50 µM. For the same molecule, the RB50 (MKNK2) was over 50 µM, the RB50 (LATS2) was over 50 µM and the RB50 (MAST3) was over 50 µM. It also gave an RB50 (IGF1R) of over 50 µM, an RB50 (MAP2K2) of over 50 µM and an RB50 (MAP4K5) of over 50 µM. For the same molecule, the RB50 (PRKAG3) was over 50 µM, the RB50 (WEE1) was 361 nM and the RB50 (TGFBR2) was over 50 µM. It also gave an RB50 (ARAF) of over 50 µM, an RB50 (CSNK1D) of over 50 µM and an RB50 (MARK2) of over 50 µM. For the same molecule, the RB50 (BRSK2) was over 50 µM, the RB50 (MST1R) was over 50 µM and the RB50 (MAP2K3) was over 50 µM. For the same molecule, the RB50 (TAOK3) was over 50 µM, the RB50 (PHKA2) was over 50 µM and the RB50 (CAMK2G) was over 50 µM. For the same molecule, the RB50 (PRKG1) was over 50 µM, the RB50 (BMPR1B) was 20.7 nM and the RB50 (TK2) was over 50 µM. For the same molecule, the RB50 (GAK) was over 50 µM, the RB50 (MAP4K1) was over 50 µM and the RB50 (SRC) was 178 nM. For the same molecule, the RB50 (FGFR4) was over 50 µM, the RB50 (CLK4) was over 50 µM and the RB50 (IKBKE) was over 50 µM. It also gave an RB50 (PRKDC) of over 50 µM.
